# According to patent US7863438B2 (Yamasa Corporation, priority 2005, dated 2011):
# Assay: Stability of powdery PAPS salt at ambient temperature in a desiccator (HPLC determination of PAPS)
# Conditions: powder 10 mg, desiccator (relative humidity: 10%), ambient temperature (23±2° C.), seven days
substance,measurement,value
3′-phosphoadenosine 5′-phosphosulfate,Undecomposed PAPS (%),95%
